Measurements taken from ChEMBL document CHEMBL1124481, “2-Haloaporphines as potent dopamine agonists” (J Med Chem, 1989).

System: D(2) dopamine receptor (Sus scrofa)
Assay: Proportion of high affinity state of Dopamine receptor D2 measured by compound ability to displace [3H]spiperone from porcine anterior pituitary membranes

In the case of `CN1CCc2cc(F)cc3c2[C@H]1Cc1ccc(O)c(O)c1-3`, the D-2 is reported as 68%.
